## Antibody variant affinities, Ab-14 light chain, assay B

Values reported by Li et al. 2023, doi:10.1038/s41467-023-39022-2 (FLAb copy).

Target peptide (SARS-CoV-2 spike, HR2 region): PDVDLGDISGINAS

The variants keep the heavy chain, the linker and the frameworks of Ab-14 (scFv order VH, three GGGGS repeats, VL).
VH: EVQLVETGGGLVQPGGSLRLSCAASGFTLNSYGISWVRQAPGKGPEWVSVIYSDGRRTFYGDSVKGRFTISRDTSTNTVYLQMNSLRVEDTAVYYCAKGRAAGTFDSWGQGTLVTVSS
VL: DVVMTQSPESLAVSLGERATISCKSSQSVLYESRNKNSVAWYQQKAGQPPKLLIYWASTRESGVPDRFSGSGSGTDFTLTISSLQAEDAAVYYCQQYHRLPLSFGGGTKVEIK

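These sequences belong to a second round, designed from the earlier measurements on random variants of the parent. Their group label is 14L_En_Gibbs (En: ensemble of fine-tuned language models; Gibbs: Gibbs sampling). In AlphaSeq, yeast of one mating type display the scFv and yeast of the other type display the target. Binding brings cells together so that they mate, and sequencing counts the barcode pairs among the diploids. Read counts were normalised to the haploid input and turned into Kd by a linear fit to BCL2-family pairs of known affinity, for each replicate. Each pool was mated in six replicate cultures.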

Each variant is given by its three light chain CDRs, as the data file delimits them; those of the parent are KSSQSVLYESRNKNSVA, WASTRES, QQYHRLPLS.
Values are log10 of the apparent Kd in nM; lower means stronger binding.
The mean shown is taken over the replicates in which the pair was detected.
A pair that was not seen in that replicate is written "nd"; this usually means weak binding, but a binder can also be missed.
Nonspecific signal, from three strains lacking the peptide, appeared in 4% of pairings of all light chain designs, centred on 2.64 (5% of these signals below 1.59); values are not corrected for it. For each scFv, signals with the empty controls are counted beside the result.

With FLAYALDQDGLAKNNIA / QVNLLEN / QQYERLPLA the result was 1.52, 1.31, 1.87, 0.87, 2.12, 1.43 (mean 1.52; controls 2 of 18).
With KMQTLEYTANIGENSVA / DANVHVD / QQYFRLPLS the result was 0.60, 0.39, 0.48, 0.66, 0.61, 0.79 (mean 0.59; controls 1 of 18).
With KLSDPTREWIANQSAVA / ETADTVH / QQYARLPLT the result was 1.27, 1.28, 1.00, 1.05, 1.56, 1.01 (mean 1.19; controls 1 of 18).
With QLRDAIWAEGMNKQSIA / ANEVSKD / QQYNRLPLS the result was nd, 3.61, 1.73, 1.97, 2.06, 2.02 (mean 2.28; controls 1 of 18).
With KMAMALSEEFGTYHGVA / DADHRMH / QQYNRLPLS the result was 0.73, 1.01, 0.97, 0.68, 0.57, 0.96 (mean 0.82; controls 1 of 18).
With VYNLPFEGYQPKKYSIA / NAEIREY / QQYFRLPIL the result was 1.50, 1.59, 0.55, 1.05, 0.73, 0.89 (mean 1.05; controls 1 of 18).
With QVFFNLFEQGMRSQPIA / GTSMRET / QQYARLPLI the result was 0.75, 0.81, 1.67, 0.95, 1.16, 1.33 (mean 1.11; controls 0 of 18).
With KLMDNPWVEDHYRKAIA / DINVKAD / QQYHRLPLS the result was 0.74, 0.60, 0.52, 0.77, 0.53, 0.81 (mean 0.66; controls 1 of 18).
With ILMQPYKEPGAAKNNIA / DGSIRLD / QQYHRLPLV the result was 0.49, 0.95, 0.55, 0.65, 0.87, 0.88 (mean 0.73; controls 1 of 18).
With TLVGNIQGGGWAKKSVA / DAVMRVN / QQYYRLPLS the result was 0.43, 0.71, 0.51, 1.14, 0.55, 1.10 (mean 0.74; controls 0 of 18).
With MLSNEQDYNYSADNSVA / DVTEKCN / QQYKRLPLT the result was 0.16, -0.20, 0.02, -0.53, -0.17, 0.56 (mean -0.03; controls 0 of 18).
With HVEHASLLSNATMNSVA / NGACLAD / QQYFRLPLA the result was 1.03, 0.92, 0.26, 0.78, 0.77, 0.91 (mean 0.78; controls 0 of 18).
With SLMDNIWVEDTYRKAIA / DINVRAK / QQYHRLPLS the result was 0.38, 0.29, 0.29, 0.19, 0.18, 0.46 (mean 0.30; controls 0 of 18).
With RLSLEHTGYWEMMNSIA / QASTKAF / QQYDRLPLH the result was 2.32, 2.08, 2.18, 1.28, 1.89, 2.57 (mean 2.05; controls 1 of 18).
With KVKAMLNMWARDIHNVA / HADERAV / QQYSRLPLG the result was 0.58, 0.26, 0.24, 0.20, 0.23, 0.31 (mean 0.30; controls 3 of 18).
With NLSIQNQHQNMSANAVA / QTEIRCE / QQYAQLPLA the result was 2.38, 1.34, 1.37, 1.98, 1.83, 1.97 (mean 1.81; controls 0 of 18).
With QLHAYTQGFWRAMQNIA / DISYRVT / QQYGRLPLS the result was 1.55, 2.03, 2.10, 0.83, 1.30, 2.15 (mean 1.66; controls 0 of 18).
With SLAYTQHFGQTQEKAIA / EVATREQ / QQYFRLPLG the result was 1.19, 0.81, 1.06, 0.81, 1.05, 0.99 (mean 0.99; controls 1 of 18).
With KIEQLVFPYGPSWHSIA / NASTLLA / QQYYMLPLM the result was 1.58, 1.39, 1.10, 1.34, 1.06, 1.71 (mean 1.36; controls 1 of 18).
With SLSHDQGDETNHWENVA / QDNYRAN / QDYSRLPLS the result was 2.41, 3.03, 2.37, 2.30, 3.09, 2.17 (mean 2.56; controls 1 of 18).
With QLMGQGDHSIKHANSIA / NVDIVDM / QQYAHLPLS the result was nd, nd, nd, nd, 2.13, nd (controls 1 of 18).
With HSNGNLRMGERNKNHVA / STDVRAS / QQYSRLPLT the result was 0.15, 0.14, 0.37, 0.69, 0.27, 0.59 (mean 0.37; controls 0 of 18).
With NIDQLRSYQDGRERAIA / DASIRQD / QYYNRLPLV the result was 0.27, 0.52, 0.12, 0.29, 0.29, 0.67 (mean 0.36; controls 1 of 18).
With KIELGLTRYNNGYSAVA / NETQKAN / QQYSQLPLV the result was 1.18, 2.22, 1.85, 1.03, 1.80, 1.33 (mean 1.57; controls 2 of 18).
With HINTLDVGVSDHYNSVA / EQRAAGI / QQYFRLPLS the result was 0.90, 0.78, 0.57, 0.84, 0.76, 0.72 (mean 0.76; controls 0 of 18).
With KIELSNSVSLRGTRAIA / QGSTRAH / QQYHRLPLT the result was 0.71, 0.87, 0.88, 0.92, 0.81, 1.02 (mean 0.87; controls 0 of 18).
With QVQYHPGESLRHASSIA / DVNIKVM / QQYSRLPLS the result was 0.39, 0.46, 0.46, -0.16, 0.67, 0.01 (mean 0.31; controls 1 of 18).
With HISNMQAYGYSATNSVA / DNENKLN / QQYIRLPLT the result was nd, nd, nd, nd, nd, nd (controls 0 of 18).
With KIAEGHFEYMHHGNHVA / EVSCRAY / QQYAHLPLV the result was 0.96, 0.68, 0.98, 1.12, 1.52, 1.01 (mean 1.05; controls 2 of 18).
With KLVGVDDNDNKPMSAIA / DVNTLDN / QQYGRLPLD the result was nd, 1.66, 1.02, 1.36, nd, 2.24 (mean 1.57; controls 0 of 18).
With MISMEEAPAIQQASSIA / HGGTRAE / QQYNRLPLC the result was 0.33, 0.15, 0.13, 0.08, 0.02, 0.33 (mean 0.17; controls 2 of 18).

Repeated from above, the 3 best binders with a signal in all replicates:

{"CDR-L1": "MLSNEQDYNYSADNSVA", "CDR-L2": "DVTEKCN", "CDR-L3": "QQYKRLPLT", "log10 Kd, replicates": "0.16, -0.20, 0.02, -0.53, -0.17, 0.56", "mean, log10 nM": "-0.03", "signal with controls": "0 of 18"}
{"CDR-L1": "MISMEEAPAIQQASSIA", "CDR-L2": "HGGTRAE", "CDR-L3": "QQYNRLPLC", "log10 Kd, replicates": "0.33, 0.15, 0.13, 0.08, 0.02, 0.33", "mean, log10 nM": "0.17", "signal with controls": "2 of 18"}
{"CDR-L1": "SLMDNIWVEDTYRKAIA", "CDR-L2": "DINVRAK", "CDR-L3": "QQYHRLPLS", "log10 Kd, replicates": "0.38, 0.29, 0.29, 0.19, 0.18, 0.46", "mean, log10 nM": "0.30", "signal with controls": "0 of 18"}

Values of this round are not directly comparable with the first-round values of the same sequences.
In the paper, a design with two or fewer of six values counts as a poor binder.